Earlier results, collected in US20050182140A1, “Antimicrobial compositions” (Microban Products Company, priority 2003, published 2005).

Conditions: approximately 95% active form, solid at room temperature; cited from earlier work

In the case of “N-alkyl dimethylbenzyl ammonium saccharinate [ONYXIDE™ 3300]”, the solubility in water is listed as “insoluble in water”.
